The values that follow are results of earlier work, collected in PMC3602246 (BMC Pharmacology & Toxicology, 2013).

For this data set, the system named is MOR. As to conditions: read-out: Ki, affinity binding to the MOR; literature values, one reference per ligand; ref Reference column of Table S1; cited from earlier work.

The term Ki denotes the dissociation constant of the complex between target and ligand, obtained from inhibition or displacement. In the case of `CN(C(=O)Cc1ccccc1)[C@H](CN1CCCC1)c1ccccc1`, the Ki is above 1 µM.
